Experiment [1] deals with T1, G-protein coupled receptor 35 (Homo sapiens, UniProt Q9HC97). The note with it: ht-29.
The target of experiment [2] is T1, G-protein coupled receptor 35. As to conditions: u2os.

Amino acid sequences for entries named in this document (tags omitted). A change or cut given only in a name is not applied to a line headed by its entry.
UniProt Q9HC97: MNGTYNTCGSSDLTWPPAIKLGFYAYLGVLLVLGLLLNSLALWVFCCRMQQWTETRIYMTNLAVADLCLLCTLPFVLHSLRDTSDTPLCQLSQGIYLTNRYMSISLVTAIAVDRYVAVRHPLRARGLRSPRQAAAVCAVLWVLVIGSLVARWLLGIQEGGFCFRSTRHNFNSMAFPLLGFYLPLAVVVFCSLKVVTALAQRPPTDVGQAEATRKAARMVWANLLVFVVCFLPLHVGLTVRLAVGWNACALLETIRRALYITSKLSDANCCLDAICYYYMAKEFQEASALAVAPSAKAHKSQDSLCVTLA

By EC50 is commonly meant the concentration giving half of the maximal effect. Low values mean a more potent agent, high ones a less potent agent.

As to `CC(C)(c1cc([N+](=O)[O-])c(O)c([N+](=O)[O-])c1)c1cc([N+](=O)[O-])c(O)c([N+](=O)[O-])c1`, the concentration for a half-maximal effect (EC50) stood at 2.35 µM in experiment [1] and 29.2 µM in experiment [2]. Consider `O=[N+]([O-])c1cccc(O)c1[N+](=O)[O-]`, for which, in experiment [1], the midpoint of the response, the EC50, lay at 58.5 µM.

Regarding `Cc1cc([N+](=O)[O-])cc([N+](=O)[O-])c1O`, the EC50 in experiment [1] is 6.91 µM; in experiment [2], 81.1 µM. The like results for `O=[N+]([O-])c1cc(C(=C(Cl)Cl)c2cc([N+](=O)[O-])c(O)c([N+](=O)[O-])c2)cc([N+](=O)[O-])c1O` were, in that order, 0.006 µM and 2.12 µM.

The molecule `O=[N+]([O-])c1ccc([N+](=O)[O-])c(O)c1` gave an EC50 in experiment [1] of 52.6 µM.

On to `Cc1cc([N+](=O)[O-])c(O)c([N+](=O)[O-])c1`, for which the 50% effective concentration (EC50) came to 5.27 µM in experiment [1] and 36.4 µM in experiment [2].

For `O=[N+]([O-])c1cc([N+](=O)[O-])c(Cl)c(Cl)c1O`, the concentration for a half-maximal effect (EC50) in experiment [1] is 1.39 µM; in experiment [2] it was 24.2 µM. The like results for `O=[N+]([O-])c1cc(Cl)c(O)c([N+](=O)[O-])c1` were, in that order, 5.45 µM and 41.7 µM.

Source of the values: ChEMBL document CHEMBL3390842 (Medchemcomm, 2012).
